scFv variants of Ab-14 (heavy chain) against a SARS-CoV-2 spike peptide

Binding partner: SARS-CoV-2 spike HR2 peptide, sequence PDVDLGDISGINAS.

Parent: Ab-14, a human scFv built as VH, the linker GGGGSGGGGSGGGGS, VL. Only the CDRs of the heavy chain vary.
VH: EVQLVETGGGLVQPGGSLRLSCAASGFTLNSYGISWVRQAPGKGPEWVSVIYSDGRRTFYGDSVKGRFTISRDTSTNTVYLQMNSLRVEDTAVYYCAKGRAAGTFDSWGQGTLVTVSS
VL: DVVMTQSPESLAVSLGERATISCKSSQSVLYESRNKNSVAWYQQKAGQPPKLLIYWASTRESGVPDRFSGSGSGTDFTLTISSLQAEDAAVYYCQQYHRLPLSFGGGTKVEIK

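The parent was found by panning a naive human phage display library on the peptide. Designed CDR sequences, proposed from the first random library and measured here. Group labels follow the data file (Ctrl: baseline library sampled from a position-specific scoring matrix, with some repeated check sequences; Rand: our label for a block that the file lists under HC and that is probably the random mutants of the ten best first-round binders; En: ensemble of fine-tuned language models; GP: Gaussian process model; GPLM: also part of the Gaussian process libraries; HC: hill climbing; Gen: genetic algorithm; Gibbs: Gibbs sampling; a sequence that several methods proposed may carry one label only). The assay is AlphaSeq: two haploid yeast populations carry antibody and antigen on their surface. Pairs that bind mate more often; barcode pairs of the diploids are counted by sequencing. Each replicate has its own calibration line, from reference interactions of the BCL2 family. Mating was done six times.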

Each variant is given by its three heavy chain CDRs, as the data file delimits them; those of the parent are GFTLNSYGIS, VIYSDGRRTFYGDSVK, GRAAGTFDS. Values are apparent Kd, the geometric mean of the replicates that gave a signal; lower means stronger binding. An entry "not detected" has no value in the source: the pair was not observed among the diploids in any replicate. This suggests poor binding but is not conclusive. A sequence measured in both rounds can read differently, since the two assays cover different ranges.

Kd,replicates with signal,CDR-H1,CDR-H2,CDR-H3,group
19 nM,6/6,GFTLNSYGIS,VIYSDGRRVFYGDSVK,GDAAGTFDS,Ctrl
not detected,0/6,GEDLMEYGIS,VIYADGERKSYVNSVK,GGVSVNFSS,En_Gibbs
220 nM,3/6,GFTVNSYGIS,VIYSDGRRTFYRDSVK,GTAAGTFDS,Ctrl
5.2 nM,6/6,GFSLNSYGIS,VIYSDGRRTFYTDSVK,GVAAGTFDS,GPLM_Gen
450 pM,6/6,GFDLNEYGIS,VIYADGRRTAYVDSVK,GENAGTFDL,En_Gen
1.0 nM,6/6,GFTLNSYGIS,VIYADGRRTFYGDSVK,GQAAGTFDL,GPLM_Gen
15 nM,6/6,YFSLNSYGIS,VIYSDGRRTFYADSVK,GREAGTFDS,GP_Gibbs
2.3 nM,6/6,GFDLNEYGIS,VIYADGRRTAYTDSVK,GAFAGTFDQ,En_HC
32 nM,1/6,GFTLNSYGIS,VIYSDGRKTFYGDSVK,GRTAGTFDL,Ctrl
18 nM,6/6,GFSLNSYGIS,VIYSDGRRTFYTDSVK,GWAAGTFDS,GPLM_Gen
890 pM,6/6,GFELNQYGIS,VIYSDGKRTFYSDSVK,GRAAGTFDS,GP_HC
5.9 nM,6/6,GFTLNEYGIS,VIYSDGRRTFYGDSVK,GRQAGTFDG,GPLM_HC
not detected,0/6,GFDLNSYCIS,VIYSDGRRTFYGDSVK,GRAAGWFNS,Rand
340 pM,6/6,GFDLNEYGIS,VIYADGRRTAYQDSVK,GEAAGTFDQ,En_HC
18 nM,5/6,GFQLNSYGIS,VIYSDGRRTFYGDQVK,GRNAGTFDS,GP_Gibbs
1.0 µM,1/6,GFSLNSYGIS,VIYSDGRRTFYQDSVK,GRNAGYFDS,Ctrl
5.8 nM,6/6,GFQLNSYGIS,VIYSDGRRTFYSDSVK,GQAAGTFDS,GPLM_Gen
260 nM,5/6,GFDLEEYGIS,VIYADGKRVAYQDAVK,GKHGGMFMV,En_Gibbs
160 pM,6/6,GFDLNEYGIS,VIYADGRRTFYADSVK,GNVAGTFDM,En_Gen
1.8 nM,6/6,GFTLNSYGIS,VIYSDGQRTFYSDSVK,GREAGTFDT,GPLM_Gibbs
not detected,0/6,GNGLQEYGIS,VIYADGLRSMYANSVK,GQLDGMVLV,En_Gibbs
2.3 nM,6/6,GFDLNSYGIS,VIYSDGRRTFYDDSVK,GKEAGTFDS,GP_Gen
36 nM,5/6,GFDLNSYGIS,VIYSDGRRTFYSDRVK,GQAAGTFDS,GP_Gen
not detected,0/6,GFTMNSYGIH,VIYSDGLRTFYGDSVK,GREAGTFDS,Ctrl
not detected,0/6,GFTLNDYGIS,VIYSDGRRTWYIDSVK,GRCAGTFDS,GP_HC
13 nM,5/6,GFRLNEYGIS,VIYSDGRRTFYGDSVK,GRAAGTFDM,GP_HC
220 pM,6/6,GFNLNEYGIS,VIYADGQRTFYADSVK,GGNAGTFDV,En_HC
180 pM,6/6,GFDLNEYGIS,VIYADGQRTAYADSVK,GTAAGTFDS,En_HC
6.3 µM,1/6,GFSLEEYGIS,VIYADGMRTFYTDKVK,GGLDDQEGY,En_Gibbs
370 pM,6/6,GFDLNEYGIS,VIYADGRRTFYADSVK,GQDAGTFDV,En_HC
18 nM,6/6,GFELNKYGIS,VIYSDGRRTFYGDSVK,GQAAGTFDT,GP_Gibbs
not detected,0/6,GWNLDEYGIS,VIYADGQRTFYAEAVK,GSNGSGITV,En_Gibbs
not detected,0/6,GDDLQEYGIS,VIYADGLRTAYGNKVK,GGSNGRITV,En_Gibbs
360 pM,6/6,GFDLNEYGIS,VIYADGQRTFYADSVK,GKAAGTFDQ,En_HC
8.1 nM,6/6,GFDLNEYGIS,VIYADGRRTFYIDSVK,GETAGTFIM,En_HC
not detected,0/6,GFGLDEFGIS,VIYADGLRSSYADDVK,GEDTGGFIV,En_Gibbs
17 nM,4/6,SFELNSYGIS,VIYSDGRRTFYADSVK,GQTAGTFDS,GP_Gibbs
1.1 nM,6/6,GFTLNEYGIS,VIYSDGRRTFYSDSVK,GSAAGTFDN,GP_HC
360 pM,6/6,GFDLDEYGIS,VIYADGRRTAYADSVK,GTNAGTFDT,En_Gen
22 nM,6/6,GFELNAYGIS,VIYSDGRRTFYGDQVK,GRTAGTFDS,GP_Gibbs
20 nM,1/6,GFTLNSYGIS,VIYSDGRRTFYSDSVK,GQLAGSFDS,GPLM_HC
not detected,0/6,GGNLDEYGIS,VIYADGIRRQYVDNVK,GETADAFDM,En_Gibbs
600 pM,6/6,GFDLNEYGIS,VIYADGRRTAYSDSVK,GEAAGTFDE,En_HC
not detected,0/6,GITLNSYGIS,VIYSDGRRTFYSESVK,GRAGGTFDS,Rand
not detected,0/6,GFDLQEYGIS,VIYADGARKSYTNSVK,GVWGATMDV,En_Gibbs
not detected,0/6,GFNLEEYGIS,VIYADGMRTFYTDKVK,GGLDDQEGY,En_Gibbs
not detected,0/6,GFTLNDYGLS,VIYSDGRRTFYGDSAK,SRAALTFIS,Rand
2.1 nM,5/6,GFNLDEMGIS,VIYADGSRQVYADSFK,GHFGGNKIN,En_Gibbs
40 nM,5/6,GFTLNEYGIS,VIYSDGRRTFYKDSVK,GRHAGTFDS,GPLM_HC
530 pM,6/6,GFNLNEYGIS,VIYADGRRTAYSDSVK,GEAGGTFDV,En_HC
1.7 nM,5/6,GFTLNSYGIS,VIYSDGRRTFYSDSVK,GIAAFTVDS,Ctrl
770 pM,6/6,GFDLEEYGIS,VIYADGQRTAYADDVK,GNVAGTFDV,En_Gen
2.8 nM,5/6,HFSLNDYGIS,VIYSDGRRTFYGDSVK,GRTAGTFDS,GPLM_Gen
4.5 nM,5/6,GFTLNSYGIS,VIYSDGRRKFYSDSVR,GREAGTFDY,Ctrl
2.1 nM,6/6,GFDLNSYGIS,VIYSDGRRTFYGDQVK,GWTAGTFDS,GP_Gen
39 nM,5/6,GFDLNSYGIS,VIYSDGRRTFYCDSVK,GNAAGTFDS,GPLM_HC
1.8 nM,5/6,GFDLNEYGIS,VIYADGRRTFYSDSVK,GNNAGTFDQ,En_HC
2.0 nM,6/6,GFTLNEYGIS,VIYSDGRRTFYGDDVK,GRAAGTFDS,Ctrl
not detected,0/6,GFTLNSYGIS,VIYSDGRRTAYSDSVK,GRAAATFDS,Ctrl
9.0 nM,6/6,GFELNSYGIS,VIYSDGRRTFYGDSVK,GNAAGTFDS,GPLM_Gen
18 nM,6/6,GFTLNEYGIS,VIYSDGRRTFYCDSVK,GRLAGTFDT,GP_HC
95 nM,1/6,GFTLNEYGIS,VIYSDGRRTFYHDSVK,GRAAGFFDS,GP_HC
380 pM,6/6,GFSLNDYGIS,VIYSDGRRTFYQDSVK,GRTAGTFDS,GPLM_Gen
not detected,0/6,GFTLNSYGSS,VIYADGRRTSYGDSVK,GRAAGTNKS,Rand
120 pM,4/6,GFDLDEYGIS,VIYADGQRTFYADSVK,GNQAGTFDV,En_Gen

The last 4 entries again:

CDR-H1,CDR-H2,CDR-H3,group,Kd,replicates with signal
GFTLNEYGIS,VIYSDGRRTFYHDSVK,GRAAGFFDS,GP_HC,95 nM,1/6
GFSLNDYGIS,VIYSDGRRTFYQDSVK,GRTAGTFDS,GPLM_Gen,380 pM,6/6
GFTLNSYGSS,VIYADGRRTSYGDSVK,GRAAGTNKS,Rand,not detected,0/6
GFDLDEYGIS,VIYADGQRTFYADSVK,GNQAGTFDV,En_Gen,120 pM,4/6

The parent sequence was in this pool as ten entries: three were never detected, three once, and four in most replicates, with averages from 2.2 nM to 240 nM. Nonspecific signal, from three strains lacking the peptide, appeared in 1% of pairings of all heavy chain designs, centred on 120 nM (5% of these signals below 7.0 nM); values are not corrected for it. The authors' rule: three or more of the six replicates give a measured affinity, fewer mean a poor binder.

The measurements come from Li et al. 2023 (doi:10.1038/s41467-023-39022-2) through the FLAb antibody collection.